# “And” between values parts separate entries of the source, which are not always exact repeats. Identical values can stand only once. This is a selection; strong and weak results do not stand in their true shares. Potency and affinity values are given separately. The source made the active and inactive calls.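 The calls were made as follows: active = spots per cell inhibited over 60%, with over 100 cells counted and total cytoplasm intensity under 500,000; inconclusive = wells with under 100 cells, flagged as likely toxic; inactive = the rest.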
# Amino acid sequences for entries named in this document (tags omitted). A change or cut given only in a name is not applied to a line headed by its entry.
# UniProt Q9Y2T6: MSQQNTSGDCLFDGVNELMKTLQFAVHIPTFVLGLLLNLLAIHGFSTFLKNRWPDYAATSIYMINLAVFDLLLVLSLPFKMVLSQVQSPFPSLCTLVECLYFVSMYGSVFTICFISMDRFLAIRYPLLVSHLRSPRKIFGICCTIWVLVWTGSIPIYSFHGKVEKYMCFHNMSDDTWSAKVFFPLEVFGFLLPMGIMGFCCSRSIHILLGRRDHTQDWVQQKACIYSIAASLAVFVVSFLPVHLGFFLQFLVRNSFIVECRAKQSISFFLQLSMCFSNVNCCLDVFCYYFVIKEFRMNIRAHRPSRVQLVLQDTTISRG
# Molecular target: G-protein coupled receptor 55 (Homo sapiens) (UniProt Q9Y2T6)
# Assay: inhibition of LPI-stimulated GPR55 beta-arrestin translocation – imaging, U2OS, beta-arrestin-GFP, LPI agonist, primary screen (AID 2013);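 also: U2OS cells stably carrying GPR55 and arrestin-GFP stimulated by 5 µM LPI near EC80; imaged beta-arrestin-GFP aggregate spots per cell after agonist stimulation; plate controls were LPI-stimulated DMSO wells for no effect and DMSO wells without LPI for full effect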
# Conditions: LPI antagonism, at 10 µM, hits give high values
row,Structure (SMILES),inhibition
1,c1nnnn1CCn1cnnn1,inactive: 4.9%
2,CC(C)C(=O)NC(Sc1ccccc1)C(Cl)(Cl)Cl (configuration not stated),inactive: -0.5%
3,O=P(Nc1nccs1)(c1ccccc1)c1ccccc1,inactive: 8.3%
4,Nc1ccc([As](=O)(O)c2ccc([N+](=O)[O-])cc2)cc1,inactive: 11.8%
5,C(Cc1nn[nH]n1)Cc1nn[nH]n1,inactive: -5%
6,O=C(OC1CN2CCC1CC2)c1cccc(Cl)c1 (configuration not stated),inactive: 9.9%
7,O=[N+]([O-])c1ccc(O)c(/C=N/Nc2ccc([N+](=O)[O-])cc2[N+](=O)[O-])c1,inactive: 3.2%
8,O=[N+]([O-])c1ncn(CCn2cnc([N+](=O)[O-])n2)n1,inactive: 8.4%
9,CC(=O)NC(SC(=S)N(C)C)C(Cl)(Cl)Cl (configuration not stated),inactive: 8.1%
10,O=[As](O)(c1ccccc1)c1ccc(O)cc1,inactive: -0.4%
11,C[C@H]1OP(=O)(Oc2ccccc2)[C@H](O)[C@H](O)[C@H]1N=[N+]=[N-] (some centres not stated),inactive: -0.1%
12,O=P(Nc1nc2ccccc2s1)(c1ccccc1)c1ccccc1,inactive: -25.2%
13,O=P(Nc1ccccn1)(c1ccc(Br)cc1)c1ccc(Br)cc1,inactive: 2.2%
14,CN(C)C1(CNC(=O)c2ccc(Cl)c(S(N)(=O)=O)c2)CCCCC1,inactive: 4.9%
15,CN(C)C(=O)Oc1noc2ccccc12,inactive: 5.7%
16,O=c1c2cc([N+](=O)[O-])ccc2[nH]c2c([N+](=O)[O-])cc([N+](=O)[O-])cc12,inactive: -10.2%
17,Cc1ccccc1OP(=O)(Nc1ccccn1)Oc1ccccc1C,inactive: 6.2%
18,Cc1ccc(OP(=O)(Nc2ccccn2)Oc2ccc(C)cc2)cc1,inactive: 2.9%
19,CC(=O)NC(SC(=S)N(CC(C)C)CC(C)C)C(Cl)(Cl)Cl (configuration not stated),inactive: -1.8%
20,COC(=O)c1cc2c(s1)N=C(c1ccccc1)N(C)P2(=O)N1CCOCC1 (configuration not stated),inactive: -7.7%
21,CCC(=O)N1C2C3N(C(=O)CC)C1C1N(C(=O)CC)C(C(N1C(=O)CC)N3C(=O)CC)N2C(=O)CC,inactive: -6.6%
22,O=C(OC1CN2CCC1CC2)c1ccccc1 (configuration not stated),inactive: -1.2%
23,CCNC(=S)/N=C(\N)N[N+](=O)[O-],inactive: -11.9%
24,O=C(NC1CCS(=O)(=O)C1)NP(=S)(Oc1ccccc1)Oc1ccccc1 (configuration not stated),inactive: -4.6%
25,CCOC(=O)NC(Sc1ccccc1)C(Cl)(Cl)Cl (configuration not stated),inactive: 33.9%
26,Cc1ccc(NP(=O)(Oc2cccc(C)c2)Oc2cccc(C)c2)nc1,inactive: 9.3%

row,Structure (SMILES),inhibition
1,c1ccc(-c2nn[nH]n2)c(-c2nn[nH]n2)c1,inactive: -9.3%
2,CC(=O)Nc1ccc(Oc2c([N+](=O)[O-])cc([N+](=O)[O-])cc2[N+](=O)[O-])cc1,inactive: 5.4%
3,CC(=O)Nc1ccc([As](=O)(O)O)c(O)c1,inactive: 4.6%
4,CC(=O)c1ccc(N2CC2c2ccncc2)cc1 (configuration not stated),inactive: 2%
5,C[C@@H]1C=CCP(=O)(Oc2ccccc2)O1 (some centres not stated),inactive: 9.9%
6,C[C@H]1OP(=O)(Oc2ccccc2)C[C@@H]2O[C@@H]21 (some centres not stated),inactive: -2.6%
7,CC(C)(C)C(=O)NC(Sc1ccccc1)C(Cl)(Cl)Cl (configuration not stated),inactive: 15.1%
8,CCOc1ccc(C2=NCC(CBr)S2)cc1 (configuration not stated),inactive: 14.7%
9,O=P1(Nc2nc3ccc(Cl)cc3s2)COc2ccccc2O1 (configuration not stated),inactive: -2.7%
10,CC(C)CC(=O)NC(Sc1ccc(Cl)cc1)C(Cl)(Cl)Cl (configuration not stated),inactive: 27.1%
11,Nc1cc(N)c2nonc2c1[N+](=O)[O-],inactive: 0.5%
12,Cc1c2non([O-])c-2c(C)[n+](=O)[n+]1[O-],inactive: -1.8%
13,O=C(NC(Sc1ccncn1)C(Cl)(Cl)Cl)c1ccccc1 (configuration not stated),inactive: 8.1%
14,Oc1ccccc1CNc1ccccn1,inactive: -4.1%
15,Cc1ccc(OP(=O)(Nc2nccs2)Oc2ccc(C)cc2)cc1,inactive: 20.9%
16,COc1ccccc1OP(=O)(Nc1ccc(C)cn1)Oc1ccccc1OC,inactive: 10.2%
17,Clc1ccc(Cl)c(NC2=NCC(CBr)S2)c1 (configuration not stated),inactive: 6.9%
18,CN1CCCC(OC(=O)C(c2ccccc2)c2ccccc2)C1 (configuration not stated),inactive: -5.5%
19,NC(=O)c1cc([N+](=O)[O-])cc([N+](=O)[O-])c1N,inactive: -8.2%
20,Cc1ccc(N/C(=N/P(=O)(N2CCOCC2)N2CCOCC2)N2CCOCC2)cc1,inactive: -0.5%
21,CCN(N=Nc1nonc1N)c1nonc1N,inactive: 9.5%
22,Nc1cccc2ccc([As](=O)(O)O)cc12,inactive: 2.1%
23,O=[N+]([O-])c1cc([N+](=O)[O-])c(CCN2CCOCC2)c([N+](=O)[O-])c1,inactive: 11.8%
24,Cc1ccc(NP(=O)(Oc2ccccc2F)Oc2ccccc2F)nc1,inactive: -15.4%
25,CCOP(=O)(Nc1ccccc1)OCC,inactive: 5% and inactive: 3.9%
26,Cc1cc(SC(NC(=O)c2ccc(F)cc2)C(Cl)(Cl)Cl)ncn1 (configuration not stated),inactive: 5.7%

row,Structure (SMILES),inhibition
1,O=C(O)c1ccccc1[As](=O)(O)O,inactive: -0.8%
2,CC(=O)Nc1ccc([As](=O)(O)O)cc1,inactive: 4.9%
3,O=P(Nc1nc2ccc(Cl)cc2s1)(c1ccccc1)c1ccccc1,inactive: 13.1%
4,O=[N+]([O-])c1cccc(NC2=NCC(CBr)S2)c1 (configuration not stated),inactive: -12.5%
5,O=C(O)CNc1ccc([As](=O)(O)O)cc1,inactive: 15.5%
6,CC(C)(C)C(=O)NC(Sc1ccncn1)C(Cl)(Cl)Cl (configuration not stated),inactive: 7.5%
7,O=[N+]([O-])c1ncn(CCn2ncnc2[N+](=O)[O-])n1,inactive: 9.6%
8,O=C(Nc1cc([As](=O)(O)O)ccc1O)c1ccccc1,inactive: 6.1%
9,CN(C)C(=O)OCCc1n(C)cc[n+]1C,inactive: 4.8%
10,CC(C)=N/N=C(\N)N[N+](=O)[O-],inactive: 5.3%
11,CC1CCN(C(=O)Oc2c(Cl)cc(Cl)c3cccnc23)CC1,inactive: -1.2%
12,C[N+]1=C2C=CC=CC=C2SC12C([N+](=O)[O-])=CC([N+](=O)[O-])=C[C-]2[N+](=O)[O-] (configuration not stated),inactive: 27.2%
13,Nc1ccc([As](=O)(O)c2ccc(N)cc2)cc1,inactive: 14%
14,CCN(/C(=N/P(=O)(N1CCOCC1)N1CCOCC1)N1CCOCC1)c1ccc(OC)cc1,inactive: 2.8%
15,O=[N+]([O-])c1cccc2n[nH]nc12,inactive: 12.3%
16,CC(=O)N1C2C3N(C(C)=O)C1C1N(C(C)=O)C(C(N1C(C)=O)N3C(C)=O)N2C(C)=O,inactive: 4%
17,CCc1nc2c(n1)c1c(non1O)c1c2no[n+]1[O-],inactive: 29.1%
18,O=[N+]([O-])c1cc([N+](=O)[O-])c(CCNc2ccccc2)c([N+](=O)[O-])c1,inactive: -9.8%
19,Cc1ccc(NP(=O)(Oc2ccccc2)Oc2ccccc2)nc1,inactive: 3.3%
20,COc1ccc(C2=NCC(CBr)S2)cc1 (configuration not stated),inactive: -7.9%
21,CCC(C)N(CC(C)C)C(=S)SC(NC(C)=O)C(Cl)(Cl)Cl (configuration not stated),inactive: -2.8%
22,CCOC(=O)c1ccc(NC(=O)C(C)(CCl)SC)cc1 (configuration not stated),inactive: 0.3%
23,O=C(OC1CN2CCC1CC2)c1cccc([N+](=O)[O-])c1 (configuration not stated),inactive: 3%
24,O=C(Nc1ccncc1[N+](=O)[O-])c1ccc([N+](=O)[O-])cc1[N+](=O)[O-],inactive: 16.4%
25,O=C(COc1ccccc1)OC1CN2CCC1CC2 (configuration not stated),inactive: 6.8%
26,COP1(=S)c2c(C)nn(CCC#N)c2N=C(c2ccc(F)cc2)N1C (configuration not stated),inactive: 3.1%

row,Structure (SMILES),inhibition
1,O=[N+]([O-])c1ccc(Nc2ccc(Oc3ccc([N+](=O)[O-])cc3[N+](=O)[O-])cc2)c([N+](=O)[O-])c1,inactive: 11%
2,O=P(Nc1ccccn1)(c1cccc2ccccc12)c1cccc2ccccc12,inactive: 12%
3,Cc1cc(SC(NC=O)C(Cl)(Cl)Cl)ncn1 (configuration not stated),inactive: 12.2%
4,CCOC(=O)Nc1cccc([As](=O)(O)O)c1,inactive: 6%
5,Cc1cc(SC(NC(=O)c2ccccc2)C(Cl)(Cl)Cl)nc(C(C)C)n1 (configuration not stated),inactive: -1.5%
6,CCCCOc1ccc(C(=O)NCC2(N3CCCCC3)CCCCC2)cc1OC,inactive: 14.2%
7,CCOC(=O)Nc1ccc([As](=O)(O)O)c(O)c1,inactive: -9.2%
8,O=[N+]([O-])c1cc([N+](=O)[O-])c(-c2ccn[nH]2)s1,inactive: -1.2%
9,CCN(CC)C(=S)SC(NC=O)C(Cl)(Cl)Cl (configuration not stated),inactive: 14.5%
10,CC(C)NC(=O)NP(=O)(Oc1ccccc1)Oc1ccccc1,inactive: 2.9%
11,CC(C)c1ccc(OP(=O)(Nc2ccccn2)Oc2ccccc2F)cc1 (configuration not stated),inactive: 0.9%
12,ClCCSc1nnc(-c2cccnc2)o1,inactive: -0.1%
13,Cc1ccc2nc3c(c(C)c2c1)CC(C(Cl)Cl)S3 (configuration not stated),inactive: 3.9%
14,Cc1ccc(OP(=O)(Nc2ccc([N+](=O)[O-])cn2)Oc2ccc(C)cc2)cc1,inactive: 6.5%
15,C[As](=O)(O)c1cccc(C(=O)O)c1,inactive: 4.1%
16,O=[As](O)(c1ccc(O)cc1)c1ccccc1O,inactive: 0.2%
17,COc1ccc(N/C(=N/P(=O)(N2CCOCC2)N2CCOCC2)N2CCOCC2)cc1,inactive: 10.9%
18,COc1cc(I)ccc1[As](=O)(O)O,inactive: 6%
19,COc1ccc2nc(NP(=O)(c3ccccc3)c3ccccc3)sc2c1,inactive: 6%
20,Cc1cc(=O)[nH]c(N[N+](=O)[O-])n1,inactive: 7.2%
21,O=C(OC1CN2CCC1CC2)C12CC3CC(CC(C3)C1)C2 (configuration not stated),inactive: -7.9%
22,Cc1c2c(nc3ccccc13)SC(C(Cl)Cl)C2 (configuration not stated),inactive: -0.9%
23,CCOP(=O)(Nc1cccc2ccccc12)OCC,inactive: 6.2%
24,COc1cc(C2NCCC3(OCCO3)C2(C)C)cc(OC)c1OC (configuration not stated),inactive: 6.5%
